In patent US11498930B2 (BLUERAY THERAPEUTICS (SHANGHAI) CO., LTD., priority 2018, dated 2022) one finds IC50 data, which are given here for 1 compound.

SMILES strings stand for the structures.

The test system of this experiment is MOLM-13 cells. In words: MOLM-13 cell proliferation experiment. It is filed as cell-based. To be noted: Homo sapiens, MOLM-13, read-out: MOLM-13 cell proliferation IC50. As for the experimental part: After 3 days, 5 µL of CellTiter-Glo reagent (Promega, ZG7572) was added to each well, and the plates were kept at room temperature in the dark for 10 minutes. The […] was detected by Spectra max i3 (Molecular Devices). The relative growth rate of the treated cells was compared with that of DMSO control.

Regarding `CC1(N)CCN(c2cnc(-c3cccc(Cl)c3Cl)c(N)n2)CC1` [SHP099, 6-(4-amino-4-methylpiperidin-1-yl)-3-(2,3-dichlorophenyl)pyrazin-2-amine, reference compound], the IC50 is 1370 nM.
